Values of other authors, collected in paper PMC11503300.

Target: VEGF-A165 (Homo sapiens) (UniProt P15692)

Faricimab
Kd: 3 nM
